# Assay results reported in ChEMBL document CHEMBL6087474, “Discovery of an Efficacious RET PROTAC Degrader with Enhanced Antiproliferative Activity against Resistant Cancer Cells Harboring RET Solvent-Front Mutations” (J Med Chem, 2025).
# Legend:
# Format in all cases: cell-based
# BaF3 [1] = assay: Inhibition of RET (unknown origin) phosphorylation in mouse BaF3 cells stably expressing wildtype KIF5B-RET fusion protein assessed as fold change in phosphorylated RET protein level at 100 nM measured after 6 hrs by Western blot analysis; conditions: Homo sapiens
# BaF3 [2] = assay: PROTAC activity at CRBN/KIF5B-RET (unknown origin) expressed in mouse BaF3 cells assessed as induction of RET degradation measured after 6 hrs by Western blot analysis; conditions: Homo sapiens
# BaF3 [3] = assay: PROTAC activity at CRBN/KIF5B-RET (unknown origin) expressed in mouse BaF3 cells assessed as induction of RET degradation by measuring fold change at 30 nM measured after 2 hrs in presence of cycloheximide by Western blot analysis; conditions: Homo sapiens
# BaF3 [4] = assay: Inhibition of Shc (unknown origin) phosphorylation in mouse BaF3 cells stably expression KIF5B-RET G810C mutant assessed as fold change in phosphorylated Shc protein level at 300 nM measured after 6 hrs by Western blot analysis; conditions: Homo sapiens
# BaF3 [5] = assay: Inhibition of RET (unknown origin) phosphorylation in mouse BaF3 cells stably expressing wildtype KIF5B-RET fusion protein assessed as fold change in phosphorylated RET protein level at 33.3 nM measured after 6 hrs by Western blot analysis; conditions: Homo sapiens
# BaF3 [6] = assay: Inhibition of Shc (unknown origin) phosphorylation in mouse BaF3 cells stably expression KIF5B-RET V804M mutant assessed as fold change in phosphorylated Shc protein level at 100 nM measured after 6 hrs by Western blot analysis; conditions: Homo sapiens
# BaF3 [7] = assay: Inhibition of RET (unknown origin) phosphorylation in mouse BaF3 cells stably expressing KIF5B-RET-V804M mutant assessed as fold change in phosphorylated RET protein level at 33.3 nM measured after 6 hrs by Western blot analysis; conditions: Homo sapiens
# BaF3 [8] = assay: PROTAC activity at CRBN/KIF5B-RET (unknown origin) expressed in mouse BaF3 cells assessed as induction of RET degradation by measuring fold change at 33.3 nM measured after 6 hrs by Western blot analysis; conditions: Homo sapiens
# BaF3 [9] = assay: PROTAC activity at CRBN/KIF5B-RET (unknown origin) expressed in mouse BaF3 cells assessed as induction of RET degradation by measuring fold change at 30 nM measured after 6 hrs by Western blot analysis; conditions: Homo sapiens
# BaF3 [10] = assay: PROTAC activity at CRBN/KIF5B-RET (unknown origin) expressed in mouse BaF3 cells assessed as induction of RET degradation by measuring fold change at 1.2 nM measured after 6 hrs by Western blot analysis; conditions: Homo sapiens
# BaF3 [11] = assay: Inhibition of RET (unknown origin) phosphorylation in mouse BaF3 cells stably expressing KIF5B-RET-G810R mutant assessed as fold change in phosphorylated RET protein level at 11.1 nM measured after 6 hrs by Western blot analysis; conditions: Homo sapiens
# BaF3 [12] = assay: PROTAC activity at CRBN/KIF5B-RET (unknown origin) expressed in mouse BaF3 cells assessed as induction of RET degradation by measuring fold change at 30 nM preincubated with compound for 2 hrs followed by compound washout and measured after 8 hrs by Western blot analysis; conditions: Homo sapiens
# BaF3 [13] = assay: Inhibition of RET (unknown origin) phosphorylation in mouse BaF3 cells stably expressing KIF5B-RET-G810C mutant assessed as fold change in phosphorylated RET protein level at 300 nM measured after 6 hrs by Western blot analysis; conditions: Homo sapiens
# BaF3 [14] = assay: PROTAC activity at CRBN/KIF5B-RET (unknown origin) expressed in mouse BaF3 cells assessed as induction of RET degradation by measuring fold change at 1000 nM measured after 6 hrs by Western blot analysis
# BaF3 [15] = assay: PROTAC activity at CRBN/KIF5B-RET (unknown origin) expressed in mouse BaF3 cells assessed as induction of RET degradation by measuring fold change at 300 nM measured after 6 hrs by Western blot analysis; conditions: Homo sapiens
smiles,measurement,setting,value
COc1ccc(CN2C3CC2CN(c2ccc(-c4cc(-c5cnn(C6CCN(CCCCCC#Cc7cccc8c7CN(C7CCC(=O)NC7=O)C8=O)CC6)c5)cn5ncc(C#N)c45)cn2)C3)cn1 (stereo not given),fold change (FC),BaF3 [1],0.3
same,Activity,BaF3 [2],Dose-dependent-effect
same,fold change (FC),BaF3 [3],0.4
same,fold change (FC),BaF3 [4],0.2
same,fold change (FC),BaF3 [5],0.3
same,fold change (FC),BaF3 [6],0.3
same,fold change (FC),BaF3 [7],0.3
same,fold change (FC),BaF3 [8],0.2
same,fold change (FC),BaF3 [9],0.4
same,fold change (FC),BaF3 [10],0.8
same,fold change (FC),BaF3 [11],0.9
same,fold change (FC),BaF3 [12],0.9
same,fold change (FC),BaF3 [13],0.2
same,fold change (FC),BaF3 [14],0.2
same,fold change (FC),BaF3 [15],0.2
